Test results: publication PMC3967794 (Journal of medicinal chemistry, 2014)
Marks after values point to notes of the source that are not given here.

What was measured:
washed human platelets = conditions: 10 µM, PAR4-AP
[1] = tested on: human primary donor islets; conditions: 10 µM, ELISA
[2] = in the presence of NADPH
[3] = in the presence of NADPH; Pharmaron
[4] = compared with 35

Structure (SMILES): COc1cccc(CNc2ccc(S(=O)(=O)Nc3nc4ccccc4s3)cc2)c1O [Compound 35, N-(Benzo[d]thiazol-2-yl)-4-((2-hydroxy-3-methoxybenzyl)-amino)benzenesulfonamide]
- inhibition of platelet aggregation (in words) (washed human platelets): did not inhibit platelet aggregation
- inhibition of AA/IONO-induced 12-HETE production [1]: significant inhibition
- microsomal stability T1/2 (rat) [2]: >30 (rat) min
- microsomal stability T1/2 (mouse) [3]: >300 ^a (mouse) min
- stability to glutathione (5 mM glutathione): stable
- degradation in aqueous buffers (pH 2–9): no degradation
- PBS buffer (pH 7.4) stability at 48 h (pH 7.4, 48 h): 100%

Structure (SMILES): O=S(=O)(Nc1nc2ccccc2s1)c1ccc(NCc2cccc(Cl)c2O)cc1 [Compound 71]
- rate of glucuronidation (in words) [4]: did not change the rate of glucuronidation
